# Measurements from patent US7456216B2, “Methods for the preparation and formulation of l-carnitine valproate salts” (BioLink Life Sciences, Inc., priority 2007, dated 2008).
# Assay: Solubility in water or aqueous solutions
# Type: physicochemical
# Procedure: For example, L-carnitine calcium valproate of the present invention, a white solid, is recovered in greater than about 85% yields from aqueous alcohol solutions containing valproic acid, L-carnitine, and calcium ion (Ca^2+), each of which is added to the reaction in no particular order. Likewise, L-carnitine magnesium valproate of the present invention, a white solid, is recovered in greater than about 85% yield from aqueous alcohol solutions containing valproic acid, L-carnitine, and magnesium ion (Mg^2+), each of which is added to the reaction in no particular order. Each L-carnitine valproate salt thus obtained has a purity of greater than about 95%, is free of contaminating inorganic and organic salts and residual solvents, and is stable during storage in closed and sealed containers. Further, an L-carnitine valproate salt of the present invention readily dissolves in water or aqueous solutions to provide aqueous solutions having a valproate concentration in the range from about 10 mg/mL to about 150 mg/mL and near neutral pH.
# In general, the solubilities of calcium or magnesium salts of organic acids in water or aqueous solutions vary unpredictably. […]
substance,measurement,value
L-carnitine calcium valproate,Solubility in water or aqueous solutions,readily dissolved in water or aqueous solutions
